Laboratory results as given in PMC11547827, “Discovery of Cyclic Peptide Inhibitors Targeted on TNFα-TNFR1 from Computational Design and Bioactivity Verification” (Molecules, 2024).
“Also recorded” adds a separate entry of the source.

Experiments:
[1] = test system: TNFα-mediated cytotoxicity in L929 cells; test: Neutralization of TNFα induced necrosis in L929 cells
Procedure: L929 cells were seeded at a density of 8000 cells/well in a 96-well plate and incubated for 24 h in RPMI 1640 with 10% FBS at 37 °C. The experiment was divided into a blank group, a control group, a positive control group, and an experimental group. […] Serially diluted α_CC8 was added to cells and incubated at 37 °C, 5% CO2 for 2 h initially, and then 50 μL 10 ng/mL human TNFα was added and incubated overnight (17 h). 1 μg/mL Etanercept was used as a positive control. Subsequently, 100 μL 5% CCK-8 was added per well, followed by incubation of 2 h. The control group consisted of normal cultured cells without TNFα stimulation, while the blank control group contained empty wells without cells. At last, cell viability was confirmed by measuring the absorbance of each well at 450 nm. Cell viability was calculated according to Formula (7). Data was analyzed with SPSSAU (https://spssau.com/, Accessed on 14 August 2023) using the paired t-test to compare the differences between the experimental and control groups.

L929 cells = conditions: R1_CC4, 5-200 μM, 24 h, CCK-8, 450 nm, n = 3
Procedure: L929 cells were seeded in a 96-well plate at a density of 8000 cells per well and cultured for 24 h under standard conditions. Then, the liquid in the wells was discarded, and 100 µL of medium containing different concentrations of cyclic peptides was added. After incubation for 24 h, the liquid in the well was discarded, and the medium was replaced with CCK-8 working solution (100 μL RPMI 1640 medium containing 5% CCK-8) and incubated in the dark for 2 h. The absorbance of each well at 450 nm was detected with a microplate reader. The same operation was performed with wells not seeded with cells as a blank group to eliminate systematic errors. Cell viability was calculated according to the following formula:(7) Cell viability(%)=(ODtest−ODblank)/(ODcontrol−ODblank)×100%

CC(C)C[C@@H]1NC(=O)[C@H](Cc2c[nH]cn2)NC(=O)[C@H](CC(N)=O)NC(=O)[C@H](CCC(=O)O)NC(=O)[C@H](CO)NC(=O)[C@H](C)NC(=O)[C@H]([C@@H](C)O)NC(=O)[C@H](Cc2ccccc2)NC(=O)[C@H](CO)NC(=O)CNC(=O)[C@H](CO)NC(=O)[C@H](CCC(=O)O)NC(=O)[C@@H](N)CSSC[C@@H](C(=O)O)NC(=O)[C@H](Cc2c[nH]cn2)NC(=O)[C@H](CCCNC(=N)N)NC1=O [R1_CC4]
inhibition of TNFα-mediated cytotoxicity (in words) ([1]; L929 cells): effectively inhibit the TNFα-mediated cytotoxicity; also recorded: improve cell viability significantly by inhibiting TNFα-mediated necrosis
concentration at which survival rate increased significantly ([1]; L929 cells, human TNFα 10 ng/mL, 17 h, CCK-8, n = 3): 90 µM
increase of cell survival rate ([1]; R1_CC4 90 μM, premixed with human TNFα 2 h, then 17 h on L929, n = 3): 11.6%
survival rate of L929 cells (L929 cells): exceeds 90%
